In patent US20250034165A1, “COMPOUND CONTAINING CYCLOALKYL OR HALOALKYL” (CHIA TAI TIANQING PHARMACEUTICAL GROUP CO., LTD., priority 2021, published 2025) one finds IC50 data, which are given here for eight compounds.

Chains of the proteins cited; added tags and fusions are not shown. Lines headed by an entry give the natural chain unless they say otherwise; changes in a name come on top. A line that says so, or that is headed by a name, gives the form on record, which may keep a tag or linker. Residues count along the entry.
UniProt P00533, 25-1210 T790M/L858R limits assumed: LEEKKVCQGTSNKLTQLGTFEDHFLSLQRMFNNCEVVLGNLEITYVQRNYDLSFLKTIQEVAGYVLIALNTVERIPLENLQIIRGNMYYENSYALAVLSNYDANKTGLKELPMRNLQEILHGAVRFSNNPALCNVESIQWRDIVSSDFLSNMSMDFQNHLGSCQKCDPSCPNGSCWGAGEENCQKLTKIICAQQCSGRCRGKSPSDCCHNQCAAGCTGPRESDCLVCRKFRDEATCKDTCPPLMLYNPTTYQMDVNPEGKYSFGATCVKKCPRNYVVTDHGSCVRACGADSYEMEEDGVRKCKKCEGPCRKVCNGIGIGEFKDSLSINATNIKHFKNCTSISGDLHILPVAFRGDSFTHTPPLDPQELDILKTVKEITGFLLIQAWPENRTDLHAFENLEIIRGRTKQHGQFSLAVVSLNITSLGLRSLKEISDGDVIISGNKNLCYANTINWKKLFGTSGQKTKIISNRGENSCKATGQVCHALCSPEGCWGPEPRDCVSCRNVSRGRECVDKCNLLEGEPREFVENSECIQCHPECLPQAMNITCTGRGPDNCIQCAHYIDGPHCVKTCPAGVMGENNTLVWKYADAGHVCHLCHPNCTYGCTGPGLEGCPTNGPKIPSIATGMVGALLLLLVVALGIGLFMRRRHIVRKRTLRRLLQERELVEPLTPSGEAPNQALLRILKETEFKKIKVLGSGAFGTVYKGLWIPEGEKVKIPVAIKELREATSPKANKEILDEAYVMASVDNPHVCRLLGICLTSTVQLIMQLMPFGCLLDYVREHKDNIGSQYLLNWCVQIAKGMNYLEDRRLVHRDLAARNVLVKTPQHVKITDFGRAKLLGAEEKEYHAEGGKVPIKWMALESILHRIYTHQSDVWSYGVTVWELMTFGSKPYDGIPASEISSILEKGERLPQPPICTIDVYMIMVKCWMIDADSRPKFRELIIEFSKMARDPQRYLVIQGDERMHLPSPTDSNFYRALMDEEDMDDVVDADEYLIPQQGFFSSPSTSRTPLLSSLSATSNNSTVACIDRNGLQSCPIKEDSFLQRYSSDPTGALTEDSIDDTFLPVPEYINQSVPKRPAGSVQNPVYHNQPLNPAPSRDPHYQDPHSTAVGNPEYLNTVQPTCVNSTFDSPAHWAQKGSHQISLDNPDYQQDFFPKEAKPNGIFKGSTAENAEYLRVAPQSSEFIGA
UniProt P00533, with tags, fused parts or gaps limits assumed, stated change not applied: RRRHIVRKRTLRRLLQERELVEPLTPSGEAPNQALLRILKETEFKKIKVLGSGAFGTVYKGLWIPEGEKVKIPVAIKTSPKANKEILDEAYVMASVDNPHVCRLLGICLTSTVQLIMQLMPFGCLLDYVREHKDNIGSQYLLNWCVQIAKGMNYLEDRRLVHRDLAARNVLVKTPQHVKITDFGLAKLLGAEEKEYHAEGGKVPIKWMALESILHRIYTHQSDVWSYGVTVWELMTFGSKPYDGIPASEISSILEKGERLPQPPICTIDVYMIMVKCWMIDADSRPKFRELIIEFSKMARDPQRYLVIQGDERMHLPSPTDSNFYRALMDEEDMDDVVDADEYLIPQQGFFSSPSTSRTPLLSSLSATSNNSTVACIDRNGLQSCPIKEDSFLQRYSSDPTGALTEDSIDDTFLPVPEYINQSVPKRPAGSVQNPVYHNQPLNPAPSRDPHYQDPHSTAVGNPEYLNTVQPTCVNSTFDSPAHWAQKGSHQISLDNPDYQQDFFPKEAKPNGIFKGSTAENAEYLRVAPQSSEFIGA

SMILES strings stand for the structures.

One assay concerns the target EGFR (L858R/T790M) (Homo sapiens (Human), UniProt P00533, L858R/T790M). Description: Inhibitory activity for EGFR (L858R/T790M) kinase. To be noted: read-out: EGFR(L858R/T790M) (IC50); ATP 5 μM. As for the experimental part: A 50 ng/μL EGFR (L858R/T790M, Carna) stock solution was diluted with a kinase buffer (50 mM HEPES, 10 mM MgCl2, 2 mM DTT, 1 mM EGTA, 0.01% Tween 20), and 6 μL of 1.67× working solution at 0.004175 ng/μL (final concentration: 0.0025 ng/μL) was added to each well. Different compounds dissolved in DMSO were added to wells using a nanoliter pipettor, resulting in the final concentrations of the compounds of 10 nM to 0.0024 nM (4-fold gradient, 7 concentrations in total), and blank control wells (without enzyme) and negative control wells (with enzyme, plus vehicle DMSO) were set, 2 replicate wells for each concentration. After enzyme was reacted with the compound or vehicle for 30 min, 5×ATP at 25 μM (final concentration: 5 μM, Sigma) prepared with a kinase buffer was mixed with 5× substrate at 0.5 μM (final concentration: 0.1 μM, ULight-poly GT, PerkinElmer) at a ratio of 1:1 (v:v), and the mixture was added to each well at 4 μL/well. After being sealed with a film, the plate was incubated at room temperature for 2 h, and then 5 μL of 4×EDTA at 40 mM (final concentration: 10 mM) was added to each well. After the plate was incubated for 5 min at room temperature, 5 μL of 4× detection reagent at 8 nM (final concentration: 2 nM, Eu-anti-phospho-tyrosine antibody, PerkinElmer) was added to each well. After being incubated at room temperature for 1 h, the plate was read using a PerkinElmer Envision multi-mode microplate reader (excitation: 320 nm, emission: 665 nm), and IC50 was calculated by four-parameter fitting.

Assay [1] addresses EGFR (d746-750 (d19)/T790M) (Homo sapiens (Human), UniProt P00533, DEL746-750/T790M). Description: Inhibitory activity for EGFR (d746-750 (d19)/T790M) kinase. To be noted: read-out: EGFR(d19/T790M) (IC50); ATP 5 μM. The procedure: 1.3 Screening for Inhibitory Activity for EGFR (d746-750 (d19)/T790M) Kinase
A 50 ng/μL EGFR (d746-750/T790M, Carna) stock solution was diluted with a kinase buffer (50 mM HEPES, 10 mM MgCl2, 2 mM DTT, 1 mM EGTA, 0.01% Tween 20), and 6 μL of 1.67× working solution at 0.005 ng/μL (final concentration: 0.003 ng/μL) was added to each well. Different compounds dissolved in DMSO were added to the wells using a nanoliter pipettor, resulting in the final concentrations of the compounds of 10 nM to 0.0024 nM (4-fold gradient for 7 concentrations in total), and blank control wells (without enzyme) and negative control wells (with enzyme, plus vehicle DMSO) were set, 2 replicate wells for each concentration. After enzyme was reacted with the compound or vehicle for 30 min, 5×ATP at 25 μM (final concentration: 5 μM, Sigma) prepared with a kinase buffer was mixed with 5× substrate at 0.5 μM (final concentration: 0.1 μM, ULight-poly GT, PerkinElmer) at a ratio of 1:1 (v:v), and the mixture was added to each well at 4 μL/well. After being sealed with a film, the plate was incubated at room temperature for 2 h, and then 5 μL of 4×EDTA at 40 mM (final concentration: 10 mM) was added to each well. After the plate was incubated for 5 min at room temperature, 5 μL of 4× detection reagent at 8 nM (final concentration: 2 nM, Eu-anti-phospho-tyrosine antibody, PerkinElmer) was added to each well. After being incubated at room temperature for 1 h, the plate was read using a PerkinElmer Envision multi-mode microplate reader (excitation: 320 nm, emission: 665 nm), and IC50 was calculated by four-parameter fitting.

Assay [2] concerns BAF3-EGFR (L858R/T790M/C797S) cells. In words: Inhibition of proliferation of BAF3-EGFR (L858R/T790M/C797S) cells, CCK-8. To be noted: read-out: BAF3(EGFR T790M L858R C797S) cell inhibitory activity IC50, 72 h. As for the experimental part:
(§1) A flask of EGFR (L858R/T790M/C797S) cells in the logarithmic growth phase and good conditions was taken, and the cells were collected and added to a centrifuge tube. 20 μL of cells were taken and counted, and the required number of cells (mL) was pipetted and centrifuged at 1200 rpm for 3 min. The supernatant was discarded, and an appropriate amount of plating medium (RPMI medium+10% FBS) was added to adjust the cell density to 1.5×10^5 cells/mL. The cells were seeded on a 96-well plate at 100 μL/well using a multi-channel pipette and cultured in a cell incubator at 37° C., 5% CO2 with saturated humidity. After overnight incubation, compounds were loaded using a nanoliter pipettor, 2 duplicate wells were set for each concentration, and cells without compound added were used as negative controls. After 72 h, CCK-8 was added at 10 μL/well for incubation for 2 h, then absorbance was measured at 450 nm with an Envision plate reader, and inhibition rate was calculated.
(§2) Inhibition rate (%)=(mean value of negative control group-mean value of experimental group)/(mean value of negative control group−mean value of blank group)×100%.
(§3) A dose-response curve was fitted by four-parameter analysis, with the logarithm of compound concentration serving as abscissa and inhibition rate serving as ordinate, such that IC50 was calculated.

The test system of assay [3] is BAF3-EGFR (del19/T790M/C797S) cells. In words: Inhibition of proliferation of BAF3-EGFR (Del19/T790M/C797S) cells, CCK-8. To be noted: read-out: BAF3(EGFR T790M Del19 C797S) cell inhibitory activity IC50, 72 h. The procedure:
as §1, with “BAF3-EGFR (del19/T790M/C797S)” for “EGFR (L858R/T790M/C797S)”, “1.0×10^5” for “1.5×10^5”
as §2, §3

As for `Cc1cc2cc(n1)-c1cnn(C3CC3)c1OCCC[C@@H](C)CN1C(=NC2=O)Nc2cc(NC3COC3)ccc21`, the IC50 on EGFR (L858R/T790M) amounted to 0.068 nM; in assay [1], 0.037 nM.
Regarding `CCN(CC)CCNc1ccc2c(c1)N1C[C@H](C3CC3)CCCOc3c(cnn3C)-c3cc(cc(C)n3)C(=O)N=C1N2`, the IC50 is 0.017 nM on EGFR (L858R/T790M), 0.013 nM in assay [1], < 5 nM in assay [2] and < 1 nM in assay [3].
`CNCCNc1ccc2c(c1)N1C[C@H](C3CC3)CCCOc3c(cnn3C)-c3cc(cc(C)n3)C(=O)N=C1N2`: the results for the IC50 (at EGFR (L858R/T790M); in assay [1]) were 0.016 nM and 0.014 nM, respectively.
Consider `Cc1cc2cc(n1)-c1cnn(C3CC3)c1OCCC[C@@H](C)CN1C(=NC2=O)Nc2ccc(NC3CCN(C)CC3)cc21`, for which the IC50 at EGFR (L858R/T790M) is 0.027 nM; in assay [1] it was 0.019 nM; in assay [2] it was < 5 nM; in assay [3] it was < 1 nM.
Consider `Cc1cc2cc(n1)-c1cnn(C)c1OCCC[C@@H](C1CC1)CN1C(=NC2=O)Nc2cc(NC(C)C3COC3)ccc21` (single isomer, unassigned), for which the IC50 on EGFR (L858R/T790M) is 0.066 nM; in assay [1], 0.014 nM; in assay [2], < 5 nM; in assay [3], < 1 nM.
As to `Cc1cc2cc(n1)-c1cnn(C)c1OCCC[C@@H](CC1CC1)CN1C(=NC2=O)Nc2cc(NC3COC3)ccc21`, the IC50 is 0.51 nM on EGFR (L858R/T790M) and 0.047 nM in assay [1].
As to `Cc1cc2cc(n1)-c1cnn(C)c1OCCC[C@@H](C1CC1)CN1C(=NC2=O)Nc2ccc(CN3CCN(C)CC3)cc21`, the IC50 on EGFR (L858R/T790M) was 0.029 nM; in assay [1], 0.016 nM; in assay [2], < 5 nM; in assay [3], < 1 nM.
In the case of `Cc1cc2cc(n1)-c1cnn(C)c1OCCC[C@@H](C1CC1)CN1C(=NC2=O)Nc2cc(NC3COC3)ccc21`, the IC50 at EGFR (L858R/T790M) worked out at 0.022 nM; in assay [1] it was 0.011 nM.
